Among the data in ChEMBL document CHEMBL4610124, “Novel Thienopyrimidine Inhibitors of Leishmania N-Myristoyltransferase with On-Target Activity in Intracellular Amastigotes” (J Med Chem, 2020) are selectivity ratio values, retold here.

The nature of the test: Selectivity ratio of EC50 for antileishmanial activity against Leishmania donovani MHOM/ET/67/HU3 intracellular amastigotes to IC50 for NMT in Leishmania donovani MHOM/ET/67/HU3 intracellular amastigotes assessed as reduction in protein myristoylation.

SMILES strings stand for the structures.

As to `CN1CCC(N(C)c2nc(N(C)CCC#N)c3ccccc3n2)C1` (stereo unspecified), the selectivity ratio is on record as 5 - 6.
